Measurements from patent publication US9499482B2, “Pyrrolone or pyrrolidinone melanin concentrating hormone receptor-1 antagonists” (BRISTOL-MYERS SQUIBB COMPANY, priority 2012, dated 2016).

Sequences of proteins named here, by UniProt entry; tags and fusion partners are left off.
UniProt Q99705, whole entry E4Q/A5T: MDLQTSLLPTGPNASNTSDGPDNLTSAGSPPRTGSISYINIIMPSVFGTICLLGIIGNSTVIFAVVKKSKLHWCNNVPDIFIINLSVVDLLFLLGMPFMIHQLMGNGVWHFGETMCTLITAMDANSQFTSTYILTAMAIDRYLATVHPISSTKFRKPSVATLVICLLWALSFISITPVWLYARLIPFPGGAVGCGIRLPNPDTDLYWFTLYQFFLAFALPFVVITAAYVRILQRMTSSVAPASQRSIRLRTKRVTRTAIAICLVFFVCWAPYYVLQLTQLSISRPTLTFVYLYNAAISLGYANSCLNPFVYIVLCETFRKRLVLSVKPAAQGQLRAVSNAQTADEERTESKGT

Each molecule was assayed against human melanin concentrating hormone receptor (MCHR1), mutated (E4Q, A5T) hMCHR1 (Homo sapiens (Human), UniProt Q99705, A5T/E4Q) (assay: Radioligand binding assay for assessment of MCHR1 activity ([125I]-MCH competition, HEK-293 membranes)). Details: Table G.
Method: Radioligand Binding Assay for Assessment of MCHR1 Activity
An in vitro binding assay was used to determine the compound Ki value or ability to antagonize binding of a peptide agonist to the human melanin concentrating hormone receptor (MCHR1). Membranes from stably transfected HEK-293 cells expressing a mutated (E4Q, A5T) hMCHR1 receptor were prepared by dounce homogenization and differential centrifugation. […] Filters were dried, 0.05 mL MicroScint 20 was added to each well and radioactivity was subsequently quantified by scintillation counting on a TOPCOUNT® microplate scintillation counter (Packard). Inhibitory constants were determined by nonlinear least squares analysis using a four parameter logistic equation.

Ki [nM] | Structure (SMILES)
0.3 | COc1cc(N2CC=C(Oc3ccc(-c4ccccc4)cc3)C2=O)ccc1OCCN1CCCC1 [Example 213]
0.4 | COc1cc(N2CC=C(Oc3ccc(-c4ccccc4)cc3)C2=O)ccc1OCCN1CCCCC1 [Example 216]

Same assay, conditions: Table J

Ki [nM] | Structure (SMILES)
118 | O=C1CN(CCn2ncc3cc(N4CC=C(Oc5ccc(C6CC6)cc5)C4=O)ccc32)CCN1 [Example 267]
1 | O=C1C(Oc2ccc(C3CC3)cc2)=CCN1c1ccc2c(cnn2CCN2CC[C@@H](O)C2)c1 [Example 254]
1.9 | O=C1C(Oc2ccc(C3CC3)cc2)=CCN1c1ccc2c(cnn2CCN2CC(O)C2)c1 [Example 256]
2.8 | COC1CN(CCn2ncc3cc(N4CC=C(Oc5ccc(C6CC6)cc5)C4=O)ccc32)C1 [Example 255]
1.5 | O=C1C(Oc2ccc(C3CC3)cc2)=CCN1c1ccc2c(cnn2CCN2CC[C@H](F)C2)c1 [Example 263]
0.6 | O=C1C(Oc2ccc(C3CC3)cc2)=CCN1c1ccc2c(cnn2CCN2CCC[C@@H]2CO)c1 [Example 260]
3.8 | CC1(O)CN(CCn2ncc3cc(N4CC=C(Oc5ccc(C6CC6)cc5)C4=O)ccc32)C1 [Example 253]

Same assay, conditions: Table L

Ki [nM] | Structure (SMILES)
234 | COc1cc(N2CC=C(Oc3ccc(C4CC4)cc3)C2=O)ccc1CN1CC[C@@H](O)C1 [Example 279]
40 | COc1cc(N2CC=C(Oc3ccc(C4CC4)cc3)C2=O)ccc1CN1CC(O)(C2CC2)C1 [Example 278]
191 | COc1cc(N2CC=C(Oc3ccc(C4CC4)cc3)C2=O)ccc1CN1CC(O)(C(F)(F)F)C1 [Example 275]
258 | COc1cc(N2CC=C(Oc3ccc(C4CC4)cc3)C2=O)ccc1CN1CC[C@@H](F)C1 [Example 281]

Same assay, conditions: membranes from HEK-293 cells expressing mutated (E4Q, A5T) hMCHR1; 0.06-0.1 nM [Phe13,[125I]Tyr19]-MCH

Ki [nM] | Structure (SMILES)
5 | CCc1cc(N2CC[C@H](Oc3ccc(C4CC4)cc3)C2=O)ccc1OCCNC1(C)COC1 [Example 55]
2 | COc1cc(N2CC[C@H](Oc3ccc(C4CC4)cc3)C2=O)ccc1O[C@@H]1CCNC1 [Example 141]
5 | Cc1cc(N2CC[C@H](Oc3ccc(C4CC4)cc3)C2=O)ccc1OCCN1CC(O)C1 [Example 74]
1.3 | CCc1cc(N2CC[C@H](Oc3ccc(C4CC4)cc3)C2=O)ccc1OCCN1CC[C@@H](O)C1 [Example 50]
2.5 | COc1cc(N2CC[C@H](Oc3ccc(C4CC4)cc3)C2=O)ccc1OCCN1CCC[C@@H]1CO [Example 8]
0.5 | CCc1cc(N2CC[C@H](Oc3ccc(-c4ccccc4)cc3)C2=O)ccc1OCCN1CCCC1 (stereo in doubt) [Example 110, 3-(biphenyl-4-yloxy)-1-(3-ethyl-4-(2-(pyrrolidin-1-yl)ethoxy)phenyl)pyrrolidin-2-one]
2 | COc1cc(N2CC[C@H](Oc3ccc(C4CC4)cc3)C2=O)ccc1OCCNC12CC3CC(CC(O)(C3)C1)C2 [Example 21]
2 | COc1cc(N2CC[C@H](Oc3ccc(C4CC4)cc3)C2=O)ccc1OCCN1CCC[C@H]1CO [Example 9]
0.5 | COc1cc(N2CC[C@H](Oc3ccc(-c4ccccc4)cc3)C2=O)ccc1OCCN1CCCC1 (stereo in doubt) [Example 108, 3-(biphenyl-4-yloxy)-1-(3-methoxy-4-(2-(pyrrolidin-1-yl)ethoxy)phenyl)pyrrolidin-2-one]
5 | CCc1cc(N2CC[C@@H](Oc3ccc(C4CC4)cc3)C2=O)ccc1OCCN1CCCC1 (stereo in doubt) [Example 42, 3-(4-Cyclopropylphenoxy)-1-(3-ethyl-4-(2-(pyrrolidin-1-yl)ethoxy)phenyl)pyrrolidin-2-one]
1.1 | CNCCOc1ccc(N2CC[C@H](Oc3ccc(C4CC4)cc3)C2=O)cc1C [Example 86]
2 | CCc1cc(N2CC[C@H](Oc3ccc(C4CC4)cc3)C2=O)ccc1OCCN(C)C [Example 62]
5 | COc1cc(N2CC[C@H](Oc3ccc(C4CC4)cc3)C2=O)ccc1OCCNC1(C)COC1 [Example 16]
2.2 | CCc1cc(N2CC=C(Oc3ccc(C4CC4)cc3)C2=O)ccc1OCCN1CCOCC1 [Example 175]
4 | CCc1cc(N2CC[C@H](Oc3ccc(C4CC4)cc3)C2=O)ccc1OCCN1CCOCC1 [Example 47]
0.6 | CC1(O)CN(CCOc2ccc(N3CC=C(Oc4ccc(C5CC5)cc4)C3=O)cc2Br)C1 [Example 193]
4 | COc1cc(N2CC[C@H](Oc3ccc(C4CC4)cc3)C2=O)ccc1OCCN1CC(O)C1 [Example 10]
1.4 | CCc1cc(N2CC=C(Oc3ccc(C4CC4)cc3)C2=O)ccc1OCCN1CC(N)C1 [Example 172]
14 | CCc1cc(N2CC[C@H](Oc3ccc(C4CC4)cc3)C2=O)ccc1OCCNS(C)(=O)=O [Example 131]
2 | COc1cc(N2CC[C@H](Oc3ccc(C4CC4)cc3)C2=O)ccc1OCCN1CCC(O)CC1 [Example 28]
1.4 | O=C1[C@@H](Oc2ccc(C3CC3)cc2)CCN1c1ccc(OCCN2C[C@@H](O)[C@@H](O)C2)c(Cl)c1 [Example 107]
534 | COc1cc(N2CC[C@@H](Oc3ccc(C4CC4)cc3)C2=O)ccc1N1CCOCC1 (stereo in doubt) [Example 135, 3-(4-cyclopropylphenoxy)-1-(3-methoxy-4-morpholinophenyl)pyrrolidin-2-one]
3 | CCc1cc(N2CC[C@H](Oc3ccc(C4CC4)cc3)C2=O)ccc1OCCN1CC2(COC2)C1 [Example 45]
8 | NC(=O)[C@@H]1CCCN1CCOc1ccc(N2CC[C@H](Oc3ccc(C4CC4)cc3)C2=O)cc1Cl [Example 104]
11 | COc1cc(N2CC[C@H](Oc3ccc(C4CC4)cc3)C2=O)ccc1OCCN1CCNC(=O)C1 [Example 13]

Ki [nM] | Structure (SMILES)
0.9 | O=C1[C@@H](Oc2ccc(C3CC3)cc2)CCN1c1ccc(OCCN2CC[C@H](O)C2)c(Cl)c1 [Example 94]
2 | COc1cc(N2CC[C@H](Oc3ccc(C4CC4)cc3)C2=O)ccc1OCCN1CC[C@H](F)C1 [Example 3]
0.4 | O=C1C(Oc2ccc(C3CC3)cc2)=CCN1c1ccc(OCCN2CCCC2)c(OC(F)F)c1 [Example 184, 3-(4-Cyclopropylphenoxy)-1-(3-(difluoromethoxy)-4-(2-(pyrrolidin-1-yl)ethoxy)phenyl)-1H-pyrrol-2(5H)-one]
1.5 | O=C1[C@@H](Oc2ccc(C3CC3)cc2)CCN1c1ccc(OCCN2CC=CC2)c(Cl)c1 [Example 105]
0.8 | Cc1cc(N2CC[C@H](Oc3ccc(C4CC4)cc3)C2=O)ccc1OCCN1CCC[C@H]1CO [Example 72]
3 | O=C1[C@@H](Oc2ccc(C3CC3)cc2)CCN1c1ccc(OCCN2CCC[C@H]2CO)c(Cl)c1 [Example 98]
1.3 | O=C1[C@@H](Oc2ccc(C3CC3)cc2)CCN1c1ccc(OCCN2CC[C@@H](F)C2)c(Cl)c1 [Example 96]
2.7 | COc1cc(N2CC=C(Oc3ccc(C4CC4)cc3)C2=O)ccc1OCCN1CC(C#N)C1 [Example 159]
2 | COc1cc(N2CC[C@H](Oc3ccc(C4CC4)cc3)C2=O)ccc1OCCN(C)C [Example 14]
14 | CCOC(=O)N(C)CCOc1ccc(N2CC[C@H](Oc3ccc(C4CC4)cc3)C2=O)cc1OC [Example 129]
3 | COc1cc(N2CC[C@H](Oc3ccc(C4CC4)cc3)C2=O)ccc1OCCN1CC[C@@H](N(C)C)C1 [Example 18]
5.4 | O=C1C(Oc2ccc(C3CC3)cc2)=CCN1c1ccc(OCCN2CC(O)(C(F)(F)F)C2)c(OC(F)F)c1 [Example 187]
2 | COc1cc(N2CC[C@H](Oc3ccc(C4CC4)cc3)C2=O)ccc1OCCN1CC[C@H](O)C1 [Example 5]
5 | COc1cc(N2CC[C@H](Oc3ccc(C4CC4)cc3)C2=O)ccc1OCCNCC(C)(C)N1CCOCC1 [Example 27]
1.1 | COCCNCCOc1ccc(N2CC[C@H](Oc3ccc(C4CC4)cc3)C2=O)cc1C [Example 66]
0.6 | O=C1C(Oc2ccc(C3CC3)cc2)=CCN1c1ccc(OCCN2CCCC2)c(C2CC2)c1 [Example 205, 1-(3-Cyclopropyl-4-(2-(pyrrolidin-1-yl)ethoxy)phenyl)-3-(4-cyclopropylphenoxy)-1H-pyrrol-2(5H)-one]
1 | Cc1cc(N2CC[C@H](Oc3ccc(C4CC4)cc3)C2=O)ccc1OCCN1CCC2(CC1)COC2 [Example 90]
923 | O=C1C(Oc2ccc(C3CC3)cc2)=CCN1c1cnn(CCN2CC(O)C2)c1 [Example 268, 3-(4-cyclopropylphenoxy)-1-(1-(2-(3-hydroxyazetidin-1-yl)ethyl)-1H-pyrazol-4-yl)-1H-pyrrol-2(5H)-one]
12 | O=C1[C@H](Oc2ccc(-c3ccccc3)cc2)CCN1c1ccc(OCCN2CCCC2)c(Cl)c1 (stereo in doubt) [Example 115, 3-([1,1′-biphenyl]-4-yloxy)-1-(3-chloro-4-(2-(pyrrolidin-1-yl)ethoxy)phenyl)pyrrolidin-2-one]
0.5 | O=C1[C@@H](Oc2ccc(-c3ccccc3)cc2)CCN1c1ccc(OCCN2CCCC2)c(Cl)c1 (stereo in doubt) [Example 114, 3-([1,1′-biphenyl]-4-yloxy)-1-(3-chloro-4-(2-(pyrrolidin-1-yl)ethoxy)phenyl)pyrrolidin-2-one]
0.6 | COC1CN(CCOc2ccc(N3CC=C(Oc4ccc(C5CC5)cc4)C3=O)cc2OC(F)F)C1 [Example 189]
1 | Cc1cc(N2CC[C@H](Oc3ccc(C4CC4)cc3)C2=O)ccc1OCCN1CC[C@H](O)C1 [Example 79]
0.4 | COc1cc(N2CC=C(Oc3ccc(C4CC4)cc3)C2=O)ccc1OCCN1CC(NC(=O)OC(C)(C)C)C1 [Example 163]
1.2 | CCc1cc(N2CC[C@H](Oc3ccc(C4CC4)cc3)C2=O)ccc1OCCN(C)CCO [Example 48]
18 | Cc1cc(N2CC[C@H](Oc3ccc(C4CC4)cc3)C2=O)ccc1OCCNCC(F)(F)F [Example 88]
